{"source": "patent US20060135430A1", "about": "“BLy antagonists and uses thereof” (GENENTECH, INC., priority 2003, published 2006)", "molecules": {"B1": {"name": "Anti-CD20 mAb: anti-CD20 monoclonal antibody injected intraperitoneally into hCD20+ mice; the clone is not specified (antibody, V domains shown)", "VH": "QAYLQQSGAELVRPGASVKMSCKASGYTFTSYNMHWVKQTPRQGLEWIGAIYPGNGDTSYNQKFKGKATLTVDKSSSTAYMQLSSLTSEDSAVYFCARVVYYSNSYWYFDVWGTGTTVTVS", "VL": "QIVLSQSPAILSASPGEKVTMTCRASSSVSYMHWYQQKPGSSPKPWIYAPSNLASGVPARFSGSGSGTSYSLTISRVEAEDAATYYCQQWSFNPPTFGAGTKLELK"}}, "system": "hCD20+ B cells", "experiment": "B cell depletion in hCD20+ mice, FACS analysis of spleen, blood, lymph node and Peyer's Patches", "assay_type": "in vivo", "conditions": "intraperitoneal"}
{"molecule": "B1", "values": [{"measurement": "depletion of mature circulating B cells", "setting": "blood and lymph nodes", "value": "> 99", "unit": "%"}, {"measurement": "effect on B cell populations in the spleen", "setting": "spleen, T2, follicular and marginal zone B cells", "value": "depletes T2 and follicular B cells, but not marginal zone B cells"}]}
